Assay results reported in patent US10150764B2, “Substituted benzene compounds” (Epizyme, Inc., priority 2013, dated 2018).
pIC50: −log10 of the molar value.

Sequences of proteins named here, by UniProt entry; tags and fusion partners are left off.
UniProt Q15910, whole entry Y641F: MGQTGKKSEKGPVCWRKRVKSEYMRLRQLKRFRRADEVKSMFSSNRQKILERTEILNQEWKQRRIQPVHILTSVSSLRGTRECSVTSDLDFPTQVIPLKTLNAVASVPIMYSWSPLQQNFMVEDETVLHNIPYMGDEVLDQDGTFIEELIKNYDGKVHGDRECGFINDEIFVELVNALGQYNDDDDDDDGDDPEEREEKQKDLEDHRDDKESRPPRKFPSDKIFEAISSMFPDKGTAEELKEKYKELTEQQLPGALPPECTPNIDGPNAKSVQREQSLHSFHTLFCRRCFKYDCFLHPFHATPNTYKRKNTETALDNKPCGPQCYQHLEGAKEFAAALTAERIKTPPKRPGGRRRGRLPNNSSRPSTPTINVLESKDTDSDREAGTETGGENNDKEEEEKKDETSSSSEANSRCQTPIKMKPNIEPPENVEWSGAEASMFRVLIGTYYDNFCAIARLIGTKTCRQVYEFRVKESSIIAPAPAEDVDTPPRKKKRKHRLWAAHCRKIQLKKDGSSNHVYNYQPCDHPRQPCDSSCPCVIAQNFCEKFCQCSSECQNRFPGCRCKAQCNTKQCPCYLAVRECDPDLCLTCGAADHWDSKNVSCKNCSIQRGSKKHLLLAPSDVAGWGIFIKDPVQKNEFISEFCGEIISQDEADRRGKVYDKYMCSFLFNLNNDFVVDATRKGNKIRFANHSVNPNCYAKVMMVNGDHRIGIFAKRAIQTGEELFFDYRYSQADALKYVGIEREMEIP
UniProt Q15910, whole entry: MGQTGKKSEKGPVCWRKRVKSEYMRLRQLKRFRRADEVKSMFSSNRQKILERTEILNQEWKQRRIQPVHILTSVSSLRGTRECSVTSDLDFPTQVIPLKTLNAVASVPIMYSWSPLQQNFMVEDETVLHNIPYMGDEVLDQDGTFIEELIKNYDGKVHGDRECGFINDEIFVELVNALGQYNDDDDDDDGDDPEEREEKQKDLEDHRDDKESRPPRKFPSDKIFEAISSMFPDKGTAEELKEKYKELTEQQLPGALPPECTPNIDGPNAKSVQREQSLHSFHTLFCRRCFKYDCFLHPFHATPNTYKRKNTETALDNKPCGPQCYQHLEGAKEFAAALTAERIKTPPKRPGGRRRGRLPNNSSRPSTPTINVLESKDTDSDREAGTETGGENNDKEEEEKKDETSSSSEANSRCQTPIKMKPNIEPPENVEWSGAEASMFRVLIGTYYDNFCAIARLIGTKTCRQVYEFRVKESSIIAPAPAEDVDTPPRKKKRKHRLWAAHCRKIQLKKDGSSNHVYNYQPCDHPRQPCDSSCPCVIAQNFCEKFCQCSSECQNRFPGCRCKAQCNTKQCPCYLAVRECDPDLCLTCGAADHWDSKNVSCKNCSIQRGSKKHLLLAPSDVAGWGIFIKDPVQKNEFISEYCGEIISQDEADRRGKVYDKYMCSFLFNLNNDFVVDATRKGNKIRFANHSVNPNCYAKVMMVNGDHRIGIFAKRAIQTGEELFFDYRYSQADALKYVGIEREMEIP

Tests used:
[1] = system: H3K27me3 in WSU-DLCL2 cells; assay: WSU-DLCL2 methylation assay (H3K27me3 ELISA); assay type: cell-based; settings: Homo sapiens, WSUDLCL2, 96 hours incubation, H3K27me3 normalised to total H3
Description: WSU-DLCL2 Methylation Assay
WSU-DLCL2 suspension cells were purchased from DSMZ (German Collection of Microorganisms and Cell Cultures, Braunschweig, Germany). RPMI/Glutamax Medium, Penicillin-Streptomycin, Heat Inactivated Fetal Bovine Serum, and D-PBS were purchased from Life Technologies, Grand Island, N.Y., USA. Extraction Buffer and Neutralization Buffer (5×) were purchased from Active Motif, Carlsbad, Calif., USA. Rabbit anti-Histone H3 antibody was purchased from Abcam, Cambridge, Mass., USA. Rabbit anti-H3K27me3 and HRP-conjugated anti-rabbit-IgG were purchased from Cell Signaling Technology, Danvers, Mass., USA. TMB “Super Sensitive” substrate was sourced from BioFX Laboratories, Owings Mills, Md., USA. IgG-free Bovine Serum Albumin was purchased from Jackson ImmunoResearch, West Grove, Pa., USA. PBS with Tween (10×PBST) was purchased from KPL, Gaithersburg, Md., USA. Sulfuric Acid was purchased from Ricca Chemical, Arlington, Tex., USA. Immulon ELISA plates were purchased from Thermo, Rochester, N.Y., USA. V-bottom cell culture plates were purchased from Corning Inc., Corning, N.Y., USA. V-bottom polypropylene plates were purchased from Greiner Bio-One, Monroe, N.C., USA.
WSU-DLCL2 suspension cells were maintained in growth medium (RPMI 1640 supplemented with 10% v/v heat inactivated fetal bovine serum and 100 units/mL penicillin-streptomycin) and cultured at 37° C. under 5% CO2. […]

[2] = molecular target: EZH2 Y641F mutant (PRC2 enzyme) (Homo sapiens (Human), UniProt Q15910, Y641F); assay: PRC2 enzyme assay on peptide substrate, EZH2 Y641F mutant (H3K27me2 peptide, 3H-SAM Flashplate); assay type: biochemical; settings: Y641F mutant PRC2 4 nM
[3] = molecular target: wild-type EZH2 (PRC2 enzyme) (Homo sapiens (Human), UniProt Q15910); assay: PRC2 enzyme assay on peptide substrate, wild-type EZH2 (H3K27me0 peptide, 3H-SAM Flashplate); assay type: biochemical; settings: wild-type PRC2 4 nM, read-out: WT EZH2 IC50

SMILES	pIC50 [1]	pIC50 [2]	pIC50 [3]
CCN(c1cc(Cl)cc(C(=O)NCc2c(CCN(C)C)cc3n(c2=O)NCC3)c1C)[C@H]1CC[C@H](N(C)C)CC1 [Compound 1, 5-chloro-3-(((trans)-4-(dimethylamino)cyclohexyl)(ethyl)amino)-N-((5-(2-(dimethylamino)ethyl)-7-oxo-1,2,3,7-tetrahydropyrazolo[1,5-a]pyridin-6-yl)methyl)-2-methylbenzamide]	6.12		
CCN(c1cc(Cl)cc(C(=O)NCc2c(C)n(CC)[nH]c2=O)c1C)C1CCN(CCOC)CC1 [Compound 75, 5-chloro-3-(ethyl(1-(2-methoxyethyl)piperidin-4-yl)amino)-N-((1-ethyl-5-methyl-3-oxo-2,3-dihydro-1H-pyrazol-4-yl)methyl)-2-methylbenzamide]		< 4.30	< 4.30
